Data published in publication PMC5259791 (Scientific Reports, 2017).

How the values were obtained:
PPARγ1 C285A mutant = biological target: T1, PPARγ1 C285A mutant (Homo sapiens, UniProt P37231, C313A); assay: PPRE-luciferase transactivation in HEK293T cells co-transfected with PPARγ1 C285A mutant; type: cell-based; conditions: C285A mutant versus wild type receptor, 24 h
T1 construct: expressed in transfected cells; host or cells: HEK293T (transient); vectors from Takuma Shiraki
Description: (b) Human HEK293T cells were co-transfected with the PPRE-luciferase reporter gene and the wild-type PPARγ1 or its mutant version (C285A).
HEK293 cells that stably express an exogenous Flag-tagged PPARγ from a transfected PCDNA-3 vector carrying a complete PPARγ cDNA were used for transfection experiments. The PPRE-Luc plasmid contains a luciferase reporter gene under the transcriptional control of three copies of the PPRE (Peroxisome Proliferator Response Element) derived from Acyl-CoA oxidase gene fused upstream to the herpes simplex thymidine kinase (TK) promoter, as described. […] Transient transfection assays were carried out as described in ref. [44]. […] In this case, the experiments were carried out into basal HEK293T cells and the RSV-β-Gal plasmid was used as control for transfection efficiency. […] The wild type and mutant PPARγ containing expression vectors were kindly provided by Dott. Takuma Shiraki. At least three independent experiments were performed for each transfection carried out in duplicate. Luciferase activity was normalized to β-galactosidase activity and reported as fold-induction.

PPARγ1 = biological target: T2, PPARγ1 (Homo sapiens, UniProt P37231); assay: PPRE-luciferase transactivation in HEK293 cells stably expressing exogenous PPARγ; type: cell-based; conditions: 24 h treatment
T2 construct: from a transfected PCDNA-3 vector carrying a complete PPARγ cDNA; expressed in transfected cells
Description: To verify that 1 is a bona fide PPARγ ligand with transactivation ability, we transiently transfected a PPRE-TK-luciferase-reporter plasmid in HEK293 cells that, in addition to the endogenous protein, stably express an exogenous PPARγ. These cells were selected as they express a fixed and known amount of PPARγ, so that the differences in luciferase activity can be ascribed to the different ligand used. […] Luciferase activity is reported as fold-induction after normalization to β-galactosidase activity used as control for transfection efficiency. […] (b) Human HEK293T cells were co-transfected with the PPRE-luciferase reporter gene and the wild-type PPARγ1 or its mutant version (C285A). After transfection, cells were treated for 24 h with Rosiglitazone or 1 at the indicated concentrations. Luciferase activity is reported as fold-induction after normalization to β-galactosidase activity used as control for transfection efficiency.
HEK293 cells that stably express an exogenous Flag-tagged PPARγ from a transfected PCDNA-3 vector carrying a complete PPARγ cDNA were used for transfection experiments. The PPRE-Luc plasmid contains a luciferase reporter gene under the transcriptional control of three copies of the PPRE (Peroxisome Proliferator Response Element) derived from Acyl-CoA oxidase gene fused upstream to the herpes simplex thymidine kinase (TK) promoter, as described. […]

SMILES: CN(CCOc1ccc(CC2SC(=O)NC2=O)cc1)c1ccccn1 (centres unmarked) [Rosiglitazone, reference compound]
- luciferase activity with C285A mutant (PPARγ1 C285A mutant): equivalent luciferase activity with both the wild type and mutant receptor
- concentration at peak of luciferase activity (PPARγ1): 0.8 µM
